Amino acid sequences for entries named in this document (tags omitted).
UniProt P14842, whole entry: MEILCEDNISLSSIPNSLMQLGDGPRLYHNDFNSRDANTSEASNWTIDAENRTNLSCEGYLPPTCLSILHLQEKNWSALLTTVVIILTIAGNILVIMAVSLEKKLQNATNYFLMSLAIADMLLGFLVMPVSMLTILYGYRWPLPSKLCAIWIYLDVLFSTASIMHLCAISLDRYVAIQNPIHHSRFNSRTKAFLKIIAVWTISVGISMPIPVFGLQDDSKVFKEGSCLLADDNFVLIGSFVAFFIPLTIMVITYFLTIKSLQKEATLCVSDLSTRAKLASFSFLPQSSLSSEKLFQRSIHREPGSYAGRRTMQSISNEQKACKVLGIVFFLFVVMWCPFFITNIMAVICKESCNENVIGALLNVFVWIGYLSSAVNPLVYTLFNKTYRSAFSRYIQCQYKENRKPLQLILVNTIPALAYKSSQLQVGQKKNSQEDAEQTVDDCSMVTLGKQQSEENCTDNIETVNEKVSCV
UniProt P61169, whole entry: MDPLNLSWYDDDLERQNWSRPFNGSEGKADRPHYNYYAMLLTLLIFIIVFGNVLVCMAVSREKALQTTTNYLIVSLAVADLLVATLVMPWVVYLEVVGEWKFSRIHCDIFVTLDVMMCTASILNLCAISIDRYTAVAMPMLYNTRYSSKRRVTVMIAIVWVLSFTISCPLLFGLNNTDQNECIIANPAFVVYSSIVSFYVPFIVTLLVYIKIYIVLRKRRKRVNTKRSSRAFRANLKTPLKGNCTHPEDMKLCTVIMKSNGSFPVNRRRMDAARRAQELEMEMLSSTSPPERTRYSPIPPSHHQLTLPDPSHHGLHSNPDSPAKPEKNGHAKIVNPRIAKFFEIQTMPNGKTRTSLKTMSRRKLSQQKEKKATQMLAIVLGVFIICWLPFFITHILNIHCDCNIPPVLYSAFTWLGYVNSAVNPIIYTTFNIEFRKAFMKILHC

According to BindingDB's records for PubMed 7908055 (Case Western Reserve University, 1994):

How the values were obtained:
[1] = molecular target: 5-hydroxytryptamine receptor 2A (Rattus norvegicus, UniProt P14842)
D(2) dopamine receptor = D(2) dopamine receptor (Rattus norvegicus, UniProt P61169)
[2] = molecular target: T1, 5-hydroxytryptamine receptor 2C (Rattus norvegicus, UniProt P08909)
T1 sequence (P08909 whole entry): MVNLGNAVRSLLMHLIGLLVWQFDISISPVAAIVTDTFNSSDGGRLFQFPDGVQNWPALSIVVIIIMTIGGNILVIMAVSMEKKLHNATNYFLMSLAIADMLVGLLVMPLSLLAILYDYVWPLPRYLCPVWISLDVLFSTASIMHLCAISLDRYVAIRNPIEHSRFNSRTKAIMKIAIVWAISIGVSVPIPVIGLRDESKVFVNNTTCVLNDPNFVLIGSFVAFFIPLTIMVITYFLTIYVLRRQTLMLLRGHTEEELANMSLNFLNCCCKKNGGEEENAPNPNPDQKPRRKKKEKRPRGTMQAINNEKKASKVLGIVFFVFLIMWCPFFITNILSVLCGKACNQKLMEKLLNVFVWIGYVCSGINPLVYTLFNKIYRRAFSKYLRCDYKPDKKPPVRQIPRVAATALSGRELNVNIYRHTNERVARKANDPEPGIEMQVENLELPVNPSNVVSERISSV

| Ki [1] [µM] | Ki (D(2) dopamine receptor) [µM] | Ki [2] [µM] | SMILES |
| --- | --- | --- | --- |
| 0.00063 | 0.001 |  | CN(C)CCOC1=Cc2ccccc2Sc2ccc(Cl)cc21 [2-Chloro-11-(2-(dimethylamino)ethoxy)dibenzo(b,f)thiepin] |
|  |  | 0.1 | CN1CCN(CCCN2c3ccccc3Sc3ccc(C(F)(F)F)cc32)CC1 |
| 0.0794 |  |  | CC1CCN(CCCC(=O)c2ccc(F)cc2)CC1 [CAS_3575-80-2] |
